Our source for the IC50 values is patent publication EP1032559B1 (priority 1997, dated 1999).

The target of the test is clonidine: α2-receptor. Kind of test: in vitro clonidine binding: α2-receptor assay. Also noted: species or system Male Wistar rats. Particulars: rat cortical tissue homogenate; 3 nM 3H-clonidine; 20 minutes at 25° C; log-probit analysis; read-out: Inhibition of clonidine binding activity IC50. How it is done: The alkylaminophenol derivatives of the present invention are also useful as agents for treating depression. […] U'Prichard, et al., Molecular Pharmacology, 16, 47 (1979) and D. C. U'Prichard, et al., Molecular Pharm acology, 13, 454 (1976).
The following reagents are prepared: 1. Tris buffer, pH 7.7 • a. 57.2 g Tris hydrochloride 16.2 g Tris Base - q.s. to 1 liter (0.5 M Tris buffer, pH 7.7) • b. Make a 1:10 dilution in distilled H2O (0.05 M Tris buffer, pH 7.7) 2. Tris buffer containing physiological ions a. Stock Buffer
b. Dilute 1:10 in distilled H2O. This yields 0.05 M Tris hydrochloride pH 7.7; containing sodium chloride (120 mM), potassium chloride (5 mM), calcium chloride (2 mM) and magnesium chloride (1 mM). 3. [4-^3H]-Clonidine Hydrochloride (20-30 Ci/mmol) is obtained from New England Nuclear. For IC50 determinations: ^3H-Clonidine is made up to a concentration of 120 nM and 50 µl added to each tube (yields a final concentration of 3 nM in the 2 ml volume assay). 4. Clonidine hydrochloride is obtained from Boehringer Ingelheim. […]
Tissue homogenates are incubated for 20 minutes at 25° C with 3 nM ^3H-clonidine and varying drug concentrations, then immediately filtered under reduced pressure on Whatman GF/B filters. […] Ten ml of liquescent counting solution is added to each sample which is then counted by liquid scintillation spectroscopy. […]

Take `CN(C)CCC=C1c2ccccc2CCc2ccccc21` [amitriptyline]: the IC50 came out at 0.039 µM.

A word on the IC50: it is the midpoint of a concentration-inhibition curve.
